Values of other authors, collected in publication PMC6747051, “Screening of Antiviral Components of Ma Huang Tang and Investigation on the Ephedra Alkaloids Efficacy on Influenza Virus Type A” (Frontiers in Pharmacology, 2019).

Conditions: 40 mg/kg^-1 to 80 mg/kg^-1 ref Wang et al., 2001; cited from earlier work

**Q.** For `CN[C@@H](C)[C@H](O)c1ccccc1` [LEP, L-ephedrine], which “effect on the spontaneous activity of mice” value is on record?
**A.** The value was “no significant effect on the spontaneous activity”.

**Q.** Which “effect on the spontaneous activity of mice” value does the source give for `CN[C@@H](C)[C@@H](O)c1ccccc1` [DPEP, D-pseudoephedrine] here?
**A.** The value was “no significant effect on the spontaneous activity”.
